Compound activity (PubChem BioAssay)
IL-2 act: activates IL-2 in a cell-based reporter assay. IL-2 activation reporter assay, cell-based qHTS; stimulated with anti-CD3/CD4/CD28 beads; in transgenic mouse T cells. activation, % (series mostly up to about 46 µM). actives 0.065% (n = 360,000). AID 652025; in the data active = activation above about 50%; inconclusive = mostly about 30% to 49%
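Unstimulated transgenic mouse T cells; 60-min compound exposure; bead-based TCR/CD4/CD28 stimulation; 18 h culture, 37 degrees C; dual fluorescence (EGFP, DsRed) plate cytometry.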
miR-21 reporter: miR-21 reporter, rising signal. 340,000 tested, under 10 active. Potency, µM (highest dose often 38.3 µM). HeLa miR-21 FLuc reporter, luciferase, 48 h. AID 2288; active = well fitted rising curve with a large enough effect; inconclusive = small, poorly fitted or top-dose-only effect; inactive = no such curve, though single readings can be large or run the other way;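 further: miR-21 action dims this reporter so a rising signal means less miR-21 action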
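Compounds were titrated across several concentrations (up to approximately 40 uM) and incubated 48 hours with HeLa miR-21-FLuc reporter cells (miR-21 target sequence downstream of FLuc, endogenous miR-21). Readout was firefly luciferase luminescence after lytic detection reagent.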
Nrf2 block: inhibitors of Nrf2 signaling. actives 2.1% (n = 360,000). A549 ARE-Fluc reporter, luciferase luminescence, 18-24 h. Potency, µM (highest dose often 46 µM), most hits filed as inhibitors; note: nearly all actives have a fitted effect of over 60% in size
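Nrf2 function is reported as luminescence of an ARE-controlled luciferase in A549 cells. Compounds were tested at several concentrations, and a CellTiter-Fluor read on the same wells flagged cytotoxicity.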
ClpP mod: qHTS Assay for Activators of ClpP. ATP-dependent Clp protease proteolytic subunit (Bacillus subtilis (strain 168)), P80244. purified B. subtilis ClpP, FRET peptide cleavage, 20 min. Potency, µM (top dose mostly 57.5 µM). actives 1.9% (n = 340,000). AID 651965, 2013; active = well fitted falling curve with a large enough effect; inconclusive = small, poorly fitted or top-dose-only effect; inactive = no such curve, though single readings can be large or run the other way; note: the source files actives as falling curves though it sought activators and does not explain the sign; nearly all actives have a fitted effect of over 65% in size
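FRET quenching reversal measured ClpP activation: 10 microg/mL B. subtilis ClpP at pH 8 with the FRET-FV decapeptide, read at 430 nm after 320 nm excitation. The 20-min minus 0-min signal was scaled between DMSO/no-enzyme wells and ADEP (5.8 microM final).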
A549 tox: counter-screen for Nrf2 inhibitors: cytotoxicity in A549 cells. A549 ARE-Fluc cells, CellTiter-Fluor viability, 18-24 h. Potency, µM (top dose mostly 46 µM), hits mostly inhibitors. actives 0.16% (n = 390,000). AID 504648
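Cytotoxicity counterscreen: CellTiter-Fluor fluorescence was measured in A549 ARE_Fluc cells after 18-24 h of compound exposure in a concentration series. The subsequent BugLite luminescent read reports ARE-luciferase activity.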
Nrf2 ARE act: Nrf2 pathway activation. AREc32 ARE-luciferase reporter (MCF7-derived line), luminescence, 24 h. Potency, µM (doses to about 46.1 µM), hits mostly activators. actives 0.31% (n = 410,000). AID 624171; note: nearly all actives have a fitted effect of over 65% in size
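Quantitative high-throughput format: AREc32 reporter cells, 1000 per well, received compound by pin transfer and were incubated 24 hr at 37 deg C, 5% CO2, before Steady-Glo luminescence detection.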
Hits are given with their value; - = inactive; ? = inconclusive; . = no result given. In the library only some 3.7% were active in any assay of this set; here they are far more common. Unless noted, calls come from the whole dose curve; as a rule, active = well fitted curve in the direction sought with a large enough effect; inconclusive = small, poorly fitted or top-dose-only effect, or another doubt; inactive = no such curve, though single readings can be large; an effect the other way counts as inactive or inconclusive.

Sequences of proteins named here, by UniProt entry; tags and fusion partners are left off.
ATP-dependent Clp protease proteolytic subunit (Bacillus subtilis (strain 168)), P80244, UniProt P80244, whole entry, looked up: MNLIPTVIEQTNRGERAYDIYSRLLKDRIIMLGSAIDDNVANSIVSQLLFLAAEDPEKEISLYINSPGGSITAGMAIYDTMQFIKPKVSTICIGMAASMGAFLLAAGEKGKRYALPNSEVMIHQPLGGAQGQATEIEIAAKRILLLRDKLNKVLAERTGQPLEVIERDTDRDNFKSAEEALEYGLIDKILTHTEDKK

SMILES	IL-2 act	miR-21 reporter	Nrf2 block	ClpP mod	A549 tox	Nrf2 ARE act
CCO/C=C1\C(=O)N(c2ccccc2)C(=O)c2ccccc21	-	-	-	32µM	-	-
COc1cccc(C2c3c(ncn(-c4ccccc4Br)c3=N)Oc3ccc4ccccc4c32)c1 (centres undefined)	.	.	-	.	-	.
COc1ccc(OC)c(NC(=O)C2=C(C)C(=O)OC23CCN(C(C)C)CC3)c1	.	-	?	-	-	-
CC(C(=O)NCCN1C(=O)S/C(=C\c2cccnc2)C1=O)N1C(=O)c2ccccc2C1=O (centres undefined)	-	-	-	-	-	-
O=C(CCl)NCCN1C(=O)S/C(=C\c2cccnc2)C1=O	-	-	-	.	-	13µM
O=C(CCc1nc2ccccc2c(=O)[nH]1)NCCN1C(=O)S/C(=C\c2ccc(OC(F)F)cc2)C1=O	-	.	?	-	-	-
O=C(Cn1[nH]c(=O)c2ccccc2c1=O)NCCN1C(=O)S/C(=C\c2ccccc2)C1=O	-	.	?	-	-	13µM
O=C(CN1C(=O)NC2(CCCC2)C1=O)NCCN1C(=O)S/C(=C\c2ccccc2F)C1=O	-	.	?	32µM	-	-
COc1ccc(/C=C2\SC(=O)N(CCNC(=O)CN3C(=O)NC4(CCCC4)C3=O)C2=O)cc1	-	.	?	-	-	-
COc1cccc(NC(=O)Cn2c(=O)n(Cc3ccccc3)c(=O)c3c2c2cc(C)ccc2n3C)c1	.	-	-	-	-	-
Cc1cc2c(cc1S(=O)(=O)CCC(=O)N1CCN(c3ccccc3)CC1)OCC(=O)N2	.	-	-	-	-	-
CN(C)c1ccc2nc3ccc(=[N+](C)C)cc-3sc2c1	-	?	12µM	-	?	-
CN(C)c1ccc2nc3ccc(=O)cc-3sc2c1	-	.	.	-	.	-
Cc1cc(C)c(C)c(C(=O)CSc2nnc(-c3ccc4[nH]c(C)c(C)c4c3)o2)c1C	-	-	12µM	-	?	-
Cc1[nH]c2ccc(-c3nnc(SCC(=O)c4ccc(F)cc4)o3)cc2c1C	-	-	?	-	-	-
O=S(=O)(c1ccc2c(c1)OCCO2)N1CCN(S(=O)(=O)c2ccccc2OC(F)(F)F)CC1	.	.	-	.	-	.
O=C(C1=C[C@H](c2ccc3c(c2)OCO3)C[C@H](OCc2ccc(CO)cc2)O1)N1CCN(Cc2ccc3c(c2)OCO3)CC1	-	-	21µM	-	-	-
O=C(C1=C[C@H](C2CCCCC2)C[C@H](OCCCCO)O1)N1CCN(Cc2ccc3c(c2)OCO3)CC1	-	-	18µM	-	?	-
CCc1nc(-c2ccc(C)c(S(=O)(=O)N3CCN(c4ccc(C(C)=O)cc4)CC3)c2)no1	.	-	.	?	-	-
Cc1c(Cl)cccc1NS(=O)(=O)c1cc2c(cc1Cl)CCC(=O)N2	.	.	?	.	-	.
Cc1ccc(C(=O)NC(NCc2ccccc2)C(Cl)(Cl)Cl)cc1 (centres undefined)	-	-	-	14µM	-	-
Cc1cc(C)c(NC(=S)NC(NC(=O)c2ccccc2)C(Cl)(Cl)Cl)c(C)c1 (centres undefined)	-	?	?	-	-	-
Cc1ccc(C(=O)NC(NCC2CCCO2)C(Cl)(Cl)Cl)cc1 (centres undefined)	-	-	?	-	-	-
Cc1ccc(NC(=S)NC(NC(=O)c2ccccc2)C(Cl)(Cl)Cl)c(C)c1 (centres undefined)	-	?	21µM	-	?	-
COCc1cc(C)nc(OCC(=O)N/N=C/c2ccco2)c1C#N	-	-	-	14µM	-	-
COc1ccccc1OCC(=O)Nc1ccc(CSc2ccccc2)cc1C	-	-	10µM	-	-	-
CCCn1c2c(c(=N)c3c1CCC3)CCC2	-	-	7.3µM	-	-	-
Cc1[nH]nc2nc(SCC(=O)NC3CCCCC3)n(-c3ccc(Br)cc3)c(=N)c12	-	-	18µM	?	?	-
